KDM4E inh: blocks human JMJD2E demethylase activity; B2RXH2; JMJD2E catalytic domain, FDH-coupled NADH fluorescence (FDH is formaldehyde dehydrogenase); Potency, µM (doses to about 57.1 µM), for inactives: top-dose activity change, negative = inhibition, usual class: inhibitors; 230,000 compounds, 1.6% hits; active = well fitted inhibition curve with a large enough effect, not every such curve was filed as active; inconclusive = small, poorly fitted or top-dose-only effect, or another doubt; inactive = no such curve, though single readings can be large or run the other way;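 note: potency is the fitted concentration of half-maximal effect; 0% = wells with enzyme and -100% = buffer wells without enzyme; nearly all actives have a fitted effect of over 50% in size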
ALDH1A1 inh: ALDH1A1 (human) enzyme inhibition; AID 1030; 220,000 compounds, 7.3% hits; Potency, µM (titrated, usually from 75.3 µM), inactives show at the top dose activity, negative = inhibition, usual class: inhibitors; Purified ALDH1A1, NADH fluorescence, propionaldehyde substrate; active = well fitted inhibition curve with a large enough effect, not every such curve was filed as active; inconclusive = small, poorly fitted or top-dose-only effect, or another doubt; inactive = no such curve, though single readings can be large or run the other way;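 note: potency is the fitted concentration of half-maximal effect; plate controls were no enzyme wells and a reference inhibitor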
miR-21 reporter: raises the signal of a miR-21 reporter | HeLa miR-21 FLuc reporter, luciferase, 48 h | Potency, µM (doses to about 38.3 µM), without a hit: at the top dose reporter change, positive = more light | 340,000 tested, under 10 active | AID 2288; active = well fitted rising curve with a large enough effect; inconclusive = small, poorly fitted or top-dose-only effect; inactive = no such curve, though single readings can be large or run the other way;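 note: % of control where 0% means no effect; miR-21 action dims this reporter so a rising signal means less miR-21 action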
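HeLa cells endogenously expressing miR-21, stably carrying CMV-driven firefly luciferase with a downstream miR-21 binding site, 2000 cells/well. Titrations up to approximately 40 uM, 48 hours; luciferase luminescence read.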
Sfp PPTase inh: inhibitors of Bacillus subtilis Sfp phosphopantetheinyl transferase | 310,000 compounds, 3.5% hits | Potency, µM, without a hit: max response, negative = inhibition, most hits filed as inhibitors | Q9F4F7 | Biochemical Sfp PPTase activity, qHTS; active = well fitted inhibition curve with a large enough effect; inconclusive = small, poorly fitted or top-dose-only effect, or another doubt; inactive = no such curve, though single readings can be large or run the other way;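 also: the enzyme is Sfp with the accession as filed and its product quenches rhodamine fluorescence; potency is read from the fitted curve at half-maximal effect; 0% = enzyme reaction without inhibitor and -100% = no enzyme wells; top concentration of the series not given in the record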
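Fluorescence-quenching assay: 15 nM Sfp-PPTase preincubated 15 min at room temperature with compound, then 5 uM rhodamine-CoA and 12.5 uM BHQ-2-labelled YbbR peptide added. Fluorescence (ex 525/em 598 nm) read at start and after 30 min; difference gives rate.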
G9a block: G9a (human) methyltransferase inhibition | 350,000 compounds, 8.8% hits | Q96KQ7 | Potency, µM (series often up to 102 µM), inactives show top-dose activity, negative = inhibition, usual class: inhibitors | G9a H3K9 monomethylation, AlphaScreen, 2 h | AID 504332; note: potency is the fitted concentration of half-maximal effect; % is set by controls: 0 for no effect and ±100 for the full control effect; nearly all actives have a fitted effect of over 75% in size
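AlphaScreen read-out: biotin-H3K9 peptide (500 nM) methylation by 20 nM enzyme with 20 uM SAM, 2 h at room temperature after 15 min compound preincubation; anti-monomethyl H3K9 antibody plus donor/acceptor beads, 10 min dark.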
LMNA splice mod: modulators of lamin A splicing; HeLa LMNA splicing GFP/RFP minigene ratio, 48 h; Potency, µM (series often up to 46.1 µM), without a hit: at the highest dose ratio change, negative = inhibition, actives largely listed as inhibitors; 200,000 compounds, 0.01% hits; AID 1487; active = well fitted inhibition curve with a large enough effect in the signal ratio, with a control signal flat, not every such curve was filed as active; inconclusive = small, poorly fitted or top-dose-only effect, or effect the other way, or a change in a side signal; the % refers to the signal ratio; note: potency is the fitted concentration of half-maximal effect; % is set by controls: 0 for no effect and ±100 for the full control effect
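S3 HeLa cells stably expressing lamin A-EGFP splicing minigene plus DsRed2, 600 cells/well, 48 h compound exposure at 37C. Laser-scanning cytometry; analysed as GFP (500-530 nm)/RFP (575-640 nm) total intensity ratio; 0.5% DMSO vehicle.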
Active calls of the source: *; ? = inconclusive; / = not tested or not shown; ! = a repeat was not active; [ ] = dose if it differs, or a comment. Rows were chosen to be rich in hits. Some 13% of all compounds tested hit in one or more screens of this group. Unless noted, calls come from the whole dose curve; as a rule, active = well fitted curve in the direction sought with a large enough effect; inconclusive = small, poorly fitted or top-dose-only effect, or another doubt; inactive = no such curve, though single readings can be large; an effect the other way counts as inactive or inconclusive.

item | compound | KDM4E inh | ALDH1A1 inh | miR-21 reporter | Sfp PPTase inh | G9a block | LMNA splice mod
1 | COc1ccccc1N1CCN(Cc2cc(C)c(C)cc2O)CC1 | 10% | -3% | 14% | 12% | 10%[59 µM] | -19%
2 | Cc1cccc(N2CCN(Cc3ccc4c(c3)OCO4)CC2)c1C | / | / | 1% | -26% | 7.9µM* | /
3 | O=C(CN1CCCCC1)c1ccc(F)cc1 | 6% | / | -2% | 16% | ? | /
4 | Cc1cc(C)c(C(=O)CN2CCOCC2)c(C)c1 | 3% | 10µM* | 13% | 3% | 3.2µM* | 3%
5 | COc1ccc(C(=O)CN2CCCCC2)cc1 | 3% | ? | -10% | 11% | ? | -2%[46 µM]
6 | O=C(CN1CCOCC1)c1ccc2cc[nH]c2c1 | 2% | ? | -12% | 50µM* | 32µM* | -10%
7 | Cc1cccc(OC(=O)N2CCOCC2)c1 | 5% | 8% | 5% | -3% | -26% | 14%
8 | COc1ccc(C(=O)CN2CCOCC2)cc1F | 7% | 14µM* | 3% | 9% | 28µM* | 7%
9 | c1ccc(N2CCC3(CCNCC3)CC2)nc1 | / | ? | / | -7% | -4%[12.7 µM] | /
10 | C[N+]12CCC(CC1)C(C(O)(c1ccccc1)c1cccs1)C2 (stereo unspecified) | -5% | 1% | 1% | -3% | 14µM* | 6%
11 | COc1ccc(C(CNC(=O)Cc2ccc(Cl)c(Cl)c2)N(C)C)cc1 (stereo unspecified) | -6% | -2% | 0% | 14% | 7% | /
12 | COc1ccc(C(CNC(=O)Cc2ccc(Cl)c(Cl)c2)N2CCCCC2)cc1 (stereo unspecified) | / | / | -3% | 4% | 2% | /
13 | CN(C(=O)Cc1ccc(Cl)c(Cl)c1)C(CN1CCCC1)c1cccc(N=C=S)c1 (stereo unspecified) | / | ? | / | 45µM* | 18µM* | /
14 | CN(C(=O)Cc1ccc(Cl)c(Cl)c1)[C@H](CN1CCCC1)c1cccc(N=C=S)c1 | -3% | ? | / | 50µM* | / | /
15 | CCOC(=O)N1CCN(C(=O)Cn2ncc3c4ccccc4n(Cc4ccc(F)cc4)c3c2=O)CC1 | / | / | ? | / | 9%[59 µM] | /
16 | Cc1ccc(-n2ncc(C(=O)N3CCN(c4ccc(Cl)cc4)CC3)c2C2CCN(C(=O)OC(C)(C)C)CC2)c(C)c1 | / | / | 9% | / | ? | ?
17 | COc1c(C)cc(C(=O)C2CCCN(Cc3ccccn3)C2)cc1C (stereo unspecified) | -24% | 32µM* | 0% | -5% | 1% | /
18 | Cc1nn(Cc2ccccc2)c(C)c1C=C1C(=O)NC(=S)NC1=O | ? | ? | -17% | -97% | 8.9µM* | -2%
19 | CN1CSC(=S)N(C)C1 | 33% | -2% | 4% | 45µM* | ? | 15%
20 | COc1cc2c(cc1OC)C1C(=O)c3c(cc4c(c3O)C=CC(C)(C)O4)OC1CO2 (stereo unspecified) | -28% | 2% | / | ? | / | 13%
21 | N[C@@H](Cc1cc(Br)c(O)c(Br)c1)C(=O)O | 14% | ? | 0% | 50µM* | 35µM* | 1%
22 | Cc1cc(=O)n2[nH]c(C)cc2n1 | ? | -12% | -1% | 18% | -34% | ?
23 | CCC1(CCSC(=N)N)C(=O)NC(=O)NC1=O | / | -1%[13.5 µM] | / | / | / | /
24 | CCCN(CCC)C1Cc2cc(OC)c(OC)cc2C1 | -1% | 22µM*! | / | 5% | 20%[59 µM] | -13%
25 | C/C(CC(=O)N1CCN(C=O)CC1)=N\NC(=O)c1cccc([N+](=O)[O-])c1 | 2% | 25µM* | 3% | -9% | 20% | /
26 | O=C(c1cccc([N+](=O)[O-])c1)C12CN3CN(CN(C3)C1)C2 | 3% | 6% | 0% | 12% | -5% | ?
27 | Nc1cc(Cl)ccc1O | / | 8.9µM* | / | / | / | /
28 | Nc1ccc(Cl)cc1N | / | 8.9µM* | / | / | / | /
29 | NC(N)=NCCN=C(N)N | / | -8%[13.5 µM] | / | / | / | /
30 | CN(C)[C@@H](Cc1ccccc1)c1ccccc1 | / | / | / | 24% | -24%[12.7 µM] | /
31 | CCOC(=O)C1=C(N)Oc2ccccc2C12C(=O)N(CC(=O)OC)C(CC(=O)OC)=C2C(=O)OC (stereo unspecified) | -3% | 1.3µM* | -2% | 18% | 99%[59 µM] | 5%
32 | C=CCN1C(=O)C2(C(C(=O)OCC)=C(N)Oc3ccccc32)c2c1c1ccccc1oc2=O (stereo unspecified) | -7% | 0.4µM* | -2% | -9% | -6%[12.7 µM] | -5%
33 | CCN1C[C@@]2(COC)C3[C@@H](OC)C4[C@@H]1C3([C@@H]1C[C@]3(O)[C@H](OC(=O)c5ccccc5)[C@@H]1[C@]4(OC(C)=O)[C@@H](O)[C@@H]3OC)[C@H](OC)C[C@H]2O | / | / | / | / | 21%[59 µM] | /
34 | C=CCN1C(=O)NC(=O)/C(=C/C=C/c2ccccc2)C1=O | -20% | 14µM* | 0% | 28µM* | 8.9µM* | ?
35 | O=C1NC(=O)N(CCc2ccc(F)cc2)C(=O)/C1=C\C=C\c1ccccc1 | -9% | 1.6µM* | 0% | -7% | ? | /
36 | Cc1ccc(-c2nnc(C)c(N3CCCC3)n2)cc1 | -1% | -7% | -3% | 4% | 6% | ?
37 | CN1/C(=C\C=Nc2ccccc2)C(C)(C)c2ccccc21 | ? | 1% | 17% | 79µM* | 79µM* | ?
38 | CN1/C(=C\C=C2C(=O)NC(=O)NC2=O)C(C)(C)c2ccccc21 | -22% | -2% | -7% | 10% | 18%[59 µM] | /
39 | COc1ccc(OCc2n[nH]c(=S)n2Cc2ccco2)cc1 | -30% | ? | -29% | -6% | 2.8µM* | /
40 | O=C(Oc1ccccc1)N1CCC2(CCCN(Cc3nccs3)C2)CC1 | / | ? | / | 11% | -8%[12.7 µM] | /
41 | Fc1ccc(Cn2nnnc2CN2CCC(n3nnc4cc(C(F)(F)F)ccc43)CC2)cc1 | 0% | / | 0% | 12% | 16%[12.7 µM] | /
42 | OC1(c2ccc(F)cc2)CC2CCC(C1)N2Cc1nnnn1C1CCCC1 (stereo unspecified) | 5% | 2µM* | -5% | 15% | -7% | -7%
43 | [O-][Cl+]O | / | 3% | / | / | / | /
44 | Cc1ccc(C2(O)CN3CCC2CC3)cc1 (stereo unspecified) | / | / | -1% | -9% | 16% | /
45 | Nc1ccc(C2(c3ccc(N)cc3)CN3CCC2CC3)cc1 | 12% | 8% | 1% | 1% | 5.6µM* | -6%
46 | Cc1cc(OC(=O)c2cccs2)c2c3c(c(=O)oc2c1)CCCC3 | -13% | 13µM* | -5% | 13% | 37%[59 µM] | ?
47 | Cc1cc(OCC(=O)O)c2c3c(c(=O)oc2c1)CCCC3 | ? | ? | -4% | 6% | -38%[12.7 µM] | 6%
48 | Cc1cc(OC(=O)c2ccco2)c2c3c(c(=O)oc2c1)CCCC3 | -5% | 14µM* | 9% | -10% | 14%[59 µM] | ?
49 | CCOc1cc(C)cc2oc(=O)c3c(c12)CCCC3 | / | / | 8% | 17% | 5%[2.33 µM] | /
50 | O=C(O)CC1OCC=C2CN3CCC45C6=CC(=O)C(=O)C([N+](=O)[O-])=C6NC4C1C2CC35 (stereo unspecified) | 0.063µM* | 8% | 5% | 14µM* | / | /

One compound at a time, as listed above. Order of screens: KDM4E inh | ALDH1A1 inh | miR-21 reporter | Sfp PPTase inh | G9a block | LMNA splice mod
`CCCN(CCC)C1Cc2cc(OC)c(OC)cc2C1` is entered as -1% | 22µM*! | / | 5% | 20%[59 µM] | -13%
`O=C(c1cccc([N+](=O)[O-])c1)C12CN3CN(CN(C3)C1)C2` is entered as 3% | 6% | 0% | 12% | -5% | ?
`CCOC(=O)C1=C(N)Oc2ccccc2C12C(=O)N(CC(=O)OC)C(CC(=O)OC)=C2C(=O)OC` (stereo unspecified) is entered as -3% | 1.3µM* | -2% | 18% | 99%[59 µM] | 5%
`O=C(CN1CCOCC1)c1ccc2cc[nH]c2c1` is entered as 2% | ? | -12% | 50µM* | 32µM* | -10%
